# Yeast mating assay B: variants of the scFv Ab-14

The target is the same throughout: PDVDLGDISGINAS, from the HR2 region of SARS-CoV-2 spike.

The variants keep the light chain, the linker and the frameworks of Ab-14 (scFv order VH, a 15-residue (Gly4Ser)3 linker, VL).
VH: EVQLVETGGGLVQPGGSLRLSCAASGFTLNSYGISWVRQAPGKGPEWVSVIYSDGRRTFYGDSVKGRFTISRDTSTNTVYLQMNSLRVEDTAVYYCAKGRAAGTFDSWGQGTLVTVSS
VL: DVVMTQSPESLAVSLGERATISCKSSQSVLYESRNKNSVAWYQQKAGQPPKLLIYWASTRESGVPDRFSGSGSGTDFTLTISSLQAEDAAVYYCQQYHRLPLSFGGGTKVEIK

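The parent was found by panning a naive human phage display library on the peptide. These sequences belong to a second round, designed from the earlier measurements on random variants of the parent. Group labels follow the data file (Ctrl: baseline library sampled from a position-specific scoring matrix, with some repeated check sequences; Rand: our label for a block that the file lists under HC and that is probably the random mutants of the ten best first-round binders; En: ensemble of fine-tuned language models; GP: Gaussian process model; GPLM: also part of the Gaussian process libraries; HC: hill climbing; Gen: genetic algorithm; Gibbs: Gibbs sampling; a sequence that several methods proposed may carry one label only). AlphaSeq pools MATa yeast showing the antibodies with MATalpha yeast showing the peptide. Binding brings cells together so that they mate, and sequencing counts the barcode pairs among the diploids. Scores were corrected for input abundance and mapped to Kd with protein pairs of known affinity run in the same pool. Each pool was mated in six replicate cultures.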

Each variant is given by its three heavy chain CDRs, as the data file delimits them; those of the parent are GFTLNSYGIS, VIYSDGRRTFYGDSVK, GRAAGTFDS.
Affinities are written as log10 Kd with Kd in nM; a lower number is a better binder.
Replicates are averaged; those with no signal do not enter the mean.
Where no diploid with the target was found in any replicate, the entry reads "not detected": below detection, most likely a poor binder, though not proof of it.
In the paper, a design with two or fewer of six values counts as a poor binder.

CDR-H1 | CDR-H2 | CDR-H3 | group | log10 Kd (nM), mean | replicates with signal
GFHLNEYGIS | VIYSDGRRTFYGDSVK | GKTAGTFDW | GP_Gibbs | 0.46 | 3/6
GFDLNSYGIS | VIYSDGWRTFYTDSVK | GRTAGTFDS | GP_Gibbs | 0.55 | 6/6
GFNLDEYGIS | VIYADGVRTQYAQSVK | GMNNGYIAG | En_Gibbs | not detected | 0/6
GFDLNEYGIS | VIYADGRRTSYIDSVK | GETAGTFDQ | En_HC | -0.35 | 6/6
GKDLDEYGIS | VIYADGARKAYQNQFK | GGQAGTFVN | En_Gibbs | 1.13 | 6/6
GFDLNEYGIS | VIYADGKRTAYSDSVK | GEVAGTFDV | En_Gen | -0.87 | 6/6
GNSLDEYGIS | VIYADGKRTAYSDAVK | DVGSNTLVD | En_Gibbs | not detected | 0/6
GFELNSYGIS | VIYSDGRRTFYGDSVK | GKSAGTFDS | GP_Gibbs | 1.38 | 3/6
GFDLEDYGIS | VIYADGRRTAYIDSVK | GEAAGTFDT | En_HC | 0.28 | 6/6
GFDLQEYGIS | VIYADGKRSMYSNDVK | GELGLGELI | En_Gibbs | not detected | 0/6
GFSLDEYGVS | VIYADGVRQSYADDVK | GGIAGTFLY | En_Gibbs | 0.16 | 6/6
GFDLNEYGIS | VIYADGMRTAYTDSVK | GQVAGTFDI | En_Gen | -0.40 | 6/6
GFPIDEYGIS | VIYADGRRTVYSDNVK | GNYGASIAI | En_Gibbs | 2.63 | 2/6
GFDLNEYGIS | VIYADGIRTFYADSVK | GNIAGTFDS | En_HC | -0.52 | 6/6
GFTLNDTGIE | VIYSDGRRTVYIDSVK | GRAAGTFDS | Rand | not detected | 0/6
GFNLNSYGIS | VIYSDGRRTFYVDSVK | GQAAGTFDA | GPLM_Gibbs | 1.64 | 6/6
GFDLESYGIS | VIYADGSRTAYADSVK | GNVAGTFVS | En_HC | -0.05 | 6/6
QFSLNSYGIS | VIYSDGRRTFYGDSVK | GRAAGTFDS | Ctrl | 1.83 | 5/6
GQTLNSYGIS | VIYSDGRRTFYGDSVK | GRAAGTFDS | Ctrl | 1.43 | 1/6
GFPLNEYGIS | VIYSDGRRTFYGDSVK | GRQAGTFDS | GP_Gibbs | 1.22 | 3/6
GFDLNEYGIS | VIYADGLRTYYADSVK | GNVAGTFDV | En_Gen | -0.47 | 6/6
GFTLNEYGIS | VIYSDGRRTFYGDSVK | GRAAGTFRV | GPLM_HC | 2.56 | 1/6
GEELEEYGIS | VIYADGRKQSYSDSVK | GAIAGNFDM | En_Gibbs | not detected | 0/6
GFTLKSYGIS | VIYSDGKRTFYSDSVK | GRAGGTFDS | GP_HC | 2.30 | 3/6
GFLLNDYGIS | VIYSDGRRTFYGDAVK | GRAAGTFDI | GP_HC | 1.32 | 6/6
GFDLEEYGIS | VIYADGERVNYTEAVK | GEFSGVKMD | En_Gibbs | not detected | 0/6
GFTLNSYHIS | VIYSDNRRTFYDDSVK | GQLAGTFDS | Rand | not detected | 0/6
GFKLNSYGIS | VIYSDGRRTFYGDSVK | GQLAGTFDS | GP_HC | 1.35 | 1/6
GFDLNEYGIS | VIYADGKRTVYADSVK | GNQAGTFDI | En_Gen | -0.56 | 6/6
GFELNSYGIS | VIYSDGRRTFYGDAVK | GKTAGTFDS | GP_Gen | 0.83 | 6/6
GFDLNEYGIS | VIYADGRRTAYIDSVK | GEVAGTFDS | En_HC | -0.73 | 6/6
GFDLNEYGIS | VIYADGRRKFYADKVK | GEFAGTFDV | En_HC | 0.07 | 6/6
GFDLNEYGIS | VIYADGQRTSYADSVK | GQNAGTFDQ | En_HC | 0.51 | 6/6
GFNLNEYGIS | VIYADGRRTFYADSVK | GGTAGTFDV | En_HC | -0.03 | 6/6
KFSLNNYGIS | VIYSDGRRTFYSDSVK | GRTAGTFDS | GP_Gibbs | 0.46 | 6/6
GFTLNDYGIS | VIYSDGRRTFYGDVVK | ARAALTFIS | Rand | not detected | 0/6
GFDLNEYGIS | VIYADGVRSFYADSVK | GENAGTFDV | En_HC | -0.12 | 4/6
GFNLNSYGIS | VIYSDGRRTFYGDDVK | GNAAGTFDS | GP_Gen | 0.45 | 6/6
GFTLNDYGIS | VIYSDGRRTFYGDSVK | GREAGTFDS | Ctrl+GPLM_Gen | 0.24 | 8/12
GETLNSYGIS | VIYSDGRRTFYGDSVE | GRQAGTFSS | Ctrl | not detected | 0/6
GFDLNSYGIS | VIYSDGRRTFYADQVK | GQTAGTFDS | GP_Gen | 1.19 | 6/6
GFDLNEYGIS | VIYADGIRTAYADDVK | GNVAGTFDI | En_Gen | -0.27 | 6/6
SFELNSYGIS | VIYSDGRRTFYIDSVK | GQTAGTFDS | GP_Gibbs | 2.83 | 5/6
GFNLDEYGIS | VIYADGRRTAYSDSVK | GEVAGTFDL | En_HC | -0.27 | 6/6
GFSLNSYGIS | VIYSDGRRTFYADSVK | GNVAGTFDS | GPLM_Gen | -0.14 | 6/6
GFELNDYGIS | VIYSDGRRTFYGDSVK | GKAAGTFWS | GP_HC | not detected | 0/6
GFNLDEYGIS | VIYADGRRTFYSDNVK | GEIAGTFDI | En_HC | -0.28 | 6/6
GFDLNEYGIS | VIYADGRRTFYADSVK | GNLAGTFDM | En_HC | -0.61 | 6/6
GNSLDEYGIS | VIYADGKRTAYTDAVK | DVGSNTLVD | En_Gibbs | 2.19 | 1/6
GFGLNEYGIS | VIYSDGRRTFYGDSVK | GKTAGTFDL | GP_Gibbs | 0.35 | 6/6
GFTLNSYGIS | VIYSDGRRTYYGDSVK | GRAAGHFDS | Ctrl | not detected | 0/6
HFTLNDYGIS | VIYSDGRRTMYIDSVK | GRAAGTFDS | GP_HC | not detected | 0/6
GQNLNSYGIT | VIYSDGRRTFYQDSVK | GRIAGTFDT | Ctrl | 1.23 | 6/6
GFSLNEYGIS | VIYSDGRRTFYCDSVK | GKAAGTFDR | GP_HC | 1.18 | 6/6
GFTLNEYGIS | VIYSDGRRTFYGDAVK | GRTAGTFDT | GP_Gen | 0.26 | 6/6

Nonspecific signal, from three strains lacking the peptide, appeared in 1% of pairings of all heavy chain designs, centred on 2.08 (5% of these signals below 0.84); values are not corrected for it.
Where one sequence has several entries in the source, the replicates are pooled.
Of ten entries with the parent sequence, four were seen in most replicates (averages 0.34 to 2.37), three in one and three in none, so single entries are noisy.
A sequence measured in both rounds can read differently, since the two assays cover different ranges.

Source: Li et al. 2023 (doi:10.1038/s41467-023-39022-2), MIT Lincoln Laboratory and A-Alpha Bio; data file from the FLAb repository.